# Assay results: publication PMC10689320 (Dermatology and Therapy, 2023)
# How the values were obtained:
# [1] = first-in-human study, healthy subjects; cited from earlier work
# [2] = type: in vivo, healthy Chinese subjects
# [3] = additional PK analyses, stated in Introduction, no reference given; cited from earlier work
# [4] = Safety: adverse event monitoring; type: in vivo, healthy Chinese subjects
substance,measurement,setting,value
Deucravacitinib,plasma half-life (t1/2),[1],8 to 15 h
same,time to maximum plasma concentration (tmax),[1],≤ 1.0 h
same,median time to maximal plasma concentration (tmax),[2]; range over single dose and multiple daily doses of 6 mg or 12 mg,1.5 to 2.3 h
same,dose dependence of systemic exposure,"[2]; single or multiple doses, 6 mg vs 12 mg",increased approximately twofold with twofold dose increase
same,direct urinary elimination,[3],~ 13 % of dose
same,elimination by metabolism by CYP2B6/CYP2D6,[3],~ 6 % of dose
same,elimination by metabolism by carboxylesterase 2,[3],~ 15 % of dose
same,elimination by metabolism by cytochrome P450 (CYP) 1A2,[3],~ 25 % of dose
same,elimination by metabolism by uridine 5′-diphospho-glucuronosyltransferase 1A9,[3],~ 24 % of dose
same,fecal excretion,[3],~ 26 % of dose
same,overall safety and tolerability,[4]; single or multiple doses of 6 mg or 12 mg once daily,safe and well tolerated
same,deaths,[4]; whole study,No deaths were reported
same,treatment-related mild rash,[4]; whole study,14 [35%] n [%]
